Measured values reported in ChEMBL document CHEMBL3351775, “Design, synthesis and anti-HIV evaluation of novel diarylnicotinamide derivatives (DANAs) targeting the entrance channel of the NNRTI binding pocket through structure-guided molecular hybridization” (Eur J Med Chem, 2014).

Molecular target: Human immunodeficiency virus type 1 reverse transcriptase (Human immunodeficiency virus 1) (UniProt Q72547)
Experiment: Potency index, ratio of IC50 for nevirapine to IC50 for test compound for inhibition of HIV1 reverse transcriptase

## Cc1cc(C)c(Oc2cc(Nc3ccc(C#N)cc3)ncc2C(N)=O)c(C)c1
  Ratio IC50: 31
